Experimental data as given in USRE34712E, “Pharmaceutically useful (+)-1-(3-dimethylaminopropyl)-1-(4'-fluorophenyl)-1,3-dihydroiso benzofuran-5-carbonitrile and non-toxic acid addition salts thereof” (priority 1988, dated 1994).

Key:
[1] = tested on: ^3 H-serotonin (5-HT) uptake in rat brain synaptosomes; experiment: Inhibition of ^3 H-serotonin uptake in rat brain synaptosomes; type: biochemical; conditions: for IC50: rat brain synaptosomes, ^3 H-5-HT 10 nM, 10 min at 37° C., in vitro
Description: By this method the inhibition by drugs of the uptake of .[.3 H-serotonin.]. .Iadd.^3 H-serotonin .Iaddend.(^3 H-5-HT)(10 nm) in rat brain synaptosomes is determined in vitro. Method and results in Hyttel, Psychopharmacology 1978, 60, 13-18; Hyttel, Prog. Neuro-Psychopharmacol. & Biol. .[.Psychait..]. .Iadd.Psychiat. .Iaddend.1982, 6,277-295; Hyttel & Larsen, Acta pharmacol. tox. 1985, 56, suppl. 1, 146-153. .[.Procedure p.].
Male Wistar (Mol: Wist) rats (125-250 g) are sacrified by decapitation and .[.exanguinated.]. .Iadd.exsanguinated .Iaddend.Brain tissue (minus cerebellum) is gently homogenized (glass teflon homogenizer) in 40 vol (w/v) of ice cold 0.32M of sucrose containing 1 mM of nialamide. The P2 fraction (synaptosomal fraction) is obtained by centrifugation (600 g. 10 min and 25000 g. 55 min, 4° C.) and suspended in 800 volumes of a modified Krebs-Ringer-phosphate buffer, pH 7.4.
To 4000 μl of the synaptosomal suspension (5 mg original tissue) on ice are added 100 μl test substance in water. After preincubation at 37° C. for 5 min, 100 μl of ^3 H-1-NA (final .[.concnetration.]. .Iadd.concentration .Iaddend.10 nM) are added and the samples are incubated for 10 min at 37° C. The incubation is terminated by filtering the samples under vacuum through .[.Whatmam.]. .Iadd.Whatman .Iaddend.GF/F filters with a wash of 5 ml buffer containing 10 μM of unlabeled 5-HT. The filters are placed in counting vitals and 4 ml of appropriate scintillation fluid (e.g. Picofluor ®15) are added. After shaking for 1 h and storage 2 h in the dark the content of radioactivity is determined by liquid scintillation counting. Uptake is obtained by subtracting the nonspecific binding and passive transport measured in the presence of 10 μM citalopram (Lu 10-171-B).
For determination of the inhibition of uptake five concentrations of drugs covering 3 decades are used.
The measured cpm are plotted against drug concentration on semilogarithmic paper, and the best fitting s-shaped curve is drawn. The IC50 -value is determined as the concentration, at which the uptake is 50% of the total uptake in control samples minus the nonspecific binding and uptake in the presence of 10 μM of citalopram.

5-HT reuptake = conditions: racemate; background statement; cited from earlier work

Row | SMILES | IC50 [1] [nM] | selectivity as inhibitor of 5-HT reuptake (5-HT reuptake) | 5-HT uptake inhibition, share residing in the enantiomer ([1]; (+)-enantiomer compared with (-)-enantiomer)
1 | CN(C)CCCC1(c2ccc(F)cc2)OCc2cc(C#N)ccc21 (racemic) [(±)-citalopram, 1-(3-dimethylaminopropyl)-1-(4'-fluorophenyl)-1,3-dihydroisobenzofuran-5-carbonitrile, reference compound] | 1.8 | very selective inhibitor of 5-HT reuptake | –
2 | CN(C)CCCC1(c2ccc(F)cc2)OCc2cc(C#N)ccc21 (single isomer, unassigned; (+)) [(+)-citalopram, (+)-1-(3-Dimethylaminopropyl)-1-(4'-fluorophenyl)-1,3-dihydroisobenzofuran-5-carbonitrile] | 1.1 | – | almost the entire 5-HT uptake inhibition resided
3 | CN(C)CCCC1(c2ccc(F)cc2)OCc2cc(C#N)ccc21 (single isomer, unassigned; (-)) [(-)-citalopram, (-)-1-(3-dimethylaminopropyl)-1-(4'-fluorophenyl)-1,3-dihydroisobenzofuran-5-carbonitrile] | 150 | – | –
